From patent US4287190A, “Complexes of bivalent copper” (priority 1979, dated 1981)

Columns and labels:
[1] = test system: skin of the rats; assay: Percutaneous absorption, TLC of urine extracts (Example 4, FIG. 1); assay type: in vivo, Male Wistar rats
Procedure: Male Wistar rats (average weight 250 g) were anaesthetised with diethyl ether and an area of c 20 sq. cm. was shaven high on their backs. The Cu[H Sal]2. C2 H5 OH composition prepared according to example 3 was then applied to each rat (c. 20 ml per 3 rats). The rats were then returned to their cages and after two days their urine was collected and compared with the urine of control, untreated, rats following the procedure below.
Urine (5 ml) was acidified with 2 M H2 SO4 and shaken with ethyl acetate (2 ml). After centrifuging, the ethyl acetate layer was analysed by thin layer chromatography on silica gel (solvent: benzene, diethyl ether, glacial acetic acid and methanol in a ratio of 120:60:18:1 by volume) along with samples of salicylic acid, salicyluric acid, gentisic acid and ethyl salicylate.
The results are shown in FIG. 1 which is a diagrammatic representation of a chromatogram run under the conditions described above with solvent flow from origin line, represented by the points of application of the samples 1 to 9, in the direction of the arrow shown and wherein:
1 and 9 represent the points of application of a sample of a mixture of salicyluric acid (a) and salicyclic acid (b) chromatographed for comparative purposes;
2 and 8 represent the points of application of a sample of the urine extract of rats treated with the Cu[H Sal]2. C2 H5 OH composition; […]

[2] = Stability of the Cu[H Sal]2. C2 H5 OH solution; assay type: physicochemical; details: c. 0.1 M solution in ethanol-glycerol with excess salicylic acid
Procedure: Freshly prepared cupric hydroxide (1.0 g) was added to a solution of salicylic acid (7 g) in anhydrous ethanol (80 ml). The suspension was heated under reflux until all the cupric hydroxide had reacted. The resultant deep-green-coloured solution was filtered to remove any insoluble polymeric copper salicylate and glycerol (20 ml) was added to the filtrate.

For “copper salicylate ethanolate [Cu[H Sal]2. C2 H5 OH]”, the “perfusion of the skin (percutaneous absorption)” value ([1]; topical composition of example 3, inferred from urine chromatogram) was “has perfused the skin of the rats”, the “salicylic acid and gentisic acid in the urine of treated rats” value ([1]; topical, shaved back, urine collected after two days, TLC) was “presence of salicylic acid and gentisic acid in the urine” and the “stability of the solution” value [2] was “stable for a prolonged indefinite period”.
